The experiment deals with PBMC of DENV seropositive human donors. The experiment is classed as cell-based. The settings on record: ex vivo IFNγ ELISPOT.
The mark [1] stands for this setting: allele B*5801, Sri Lankan donors.
[2] abbreviates: allele B*3501, Sri Lankan donors.
The mark [3] stands for this setting: allele B*4001, Sri Lankan donors.

SMILES strings stand for the structures. Like-named read-outs stand apart in the source and are kept apart here.

For `CC[C@H](C)[C@H](NC(=O)[C@@H]1CCCN1C(=O)CNC(=O)[C@@H](NC(=O)[C@H](C)N)[C@@H](C)O)C(=O)N[C@@H](CC(C)C)C(=O)N[C@H](C(=O)N[C@@H](CC(C)C)C(=O)N[C@@H](Cc1c[nH]c2ccccc12)C(=O)O)[C@@H](C)O`, the “T cell response [SFC]” value under setting [1] worked out at 27 SFC. The same measure, in the same setting: with `CC[C@H](C)[C@H](NC(=O)[C@@H]1CCCN1C(=O)CNC(=O)[C@@H](NC(=O)[C@H](C)N)[C@@H](C)O)C(=O)N[C@@H](CO)C(=O)N[C@H](C(=O)N[C@@H](CC(C)C)C(=O)N[C@@H](Cc1c[nH]c2ccccc12)C(=O)O)[C@@H](C)O` the figure was 163 SFC.

`CC[C@H](C)[C@H](NC(=O)[C@@H]1CCCN1C(=O)CNC(=O)[C@@H](NC(=O)[C@H](C)N)[C@@H](C)O)C(=O)N[C@H](C(=O)N[C@H](C(=O)N[C@@H](CC(C)C)C(=O)N[C@@H](Cc1c[nH]c2ccccc12)C(=O)O)[C@@H](C)O)[C@@H](C)O`: under setting [1], the “T cell response [SFC]” value turned out to be 110 SFC. As to `CC(C)C[C@H](NC(=O)[C@@H](NC(=O)[C@@H](NC(=O)[C@H](CC(C)C)NC(=O)[C@@H]1CCCN1C(=O)CNC(=O)[C@@H](NC(=O)[C@H](C)N)[C@@H](C)O)[C@@H](C)O)[C@@H](C)O)C(=O)N[C@@H](Cc1c[nH]c2ccccc12)C(=O)O`, the “T cell response [SFC]” value under setting [1] was determined as 350 SFC. For `CC(C)C[C@H](NC(=O)[C@@H](NC(=O)[C@@H]1CCCN1C(=O)CNC(=O)[C@@H](NC(=O)[C@H](C)N)[C@@H](C)O)C(C)C)C(=O)N[C@H](C(=O)N[C@@H](CC(C)C)C(=O)N[C@@H](Cc1c[nH]c2ccccc12)C(=O)O)[C@@H](C)O`, the “T cell response [SFC]” value under setting [1] is recorded as 185 SFC. For the compound `CC(C)C[C@H](NC(=O)[C@@H](NC(=O)[C@H](C)NC(=O)[C@H](CCC(=O)O)NC(=O)CNC(=O)[C@H](CCC(N)=O)NC(=O)[C@@H](NC(=O)[C@@H]1CCCN1C(=O)[C@@H](N)CS)[C@@H](C)O)[C@@H](C)O)C(=O)O`, the “T cell response [SFC]” value under setting [2] was 143 SFC. In the case of `CC(C)C[C@H](NC(=O)[C@@H](NC(=O)[C@H](C)NC(=O)[C@H](CCC(=O)O)NC(=O)CNC(=O)[C@H](CCC(N)=O)NC(=O)[C@@H](NC(=O)[C@@H]1CCCN1C(=O)[C@@H](N)CS)[C@@H](C)O)C(C)C)C(=O)O`, under setting [2], the “T cell response [SFC]” value is listed as 135 SFC.

As for `C[C@@H](O)[C@H](NC(=O)[C@@H](N)CC(=O)O)C(=O)N[C@H](C(=O)N1CCC[C@H]1C(=O)N[C@@H](Cc1ccccc1)C(=O)NCC(=O)N[C@@H](CCC(N)=O)C(=O)N[C@@H](CCC(N)=O)C(=O)N[C@@H](CCCNC(=N)N)C(=O)O)[C@@H](C)O`, under “human donors, allele A*6801”, the “T cell response [SFC]” value amounted to 40 SFC. On to `CC[C@H](C)[C@H](NC(=O)[C@H](C)NC(=O)CNC(=O)[C@@H](N)Cc1ccccc1)C(=O)N[C@@H](Cc1ccc(O)cc1)C(=O)NCC(=O)N[C@@H](C)C(=O)N[C@@H](C)C(=O)N[C@@H](Cc1ccccc1)C(=O)O`, for which the “T cell response [SFC]” value under setting [2] is reported as 28 SFC. Consider `CC(C)C[C@H](NC(=O)[C@H](CCCNC(=N)N)NC(=O)[C@H](Cc1ccccc1)NC(=O)[C@H](CCC(=O)O)NC(=O)CN)C(=O)N[C@@H](CCCNC(=N)N)C(=O)NCC(=O)N[C@@H](CCC(=O)O)C(=O)N[C@@H](CCC(N)=O)C(=O)N[C@@H](CCCNC(=N)N)C(=O)O`, for which the “T cell response [SFC]” value under setting [3] turned out to be 273 SFC. Consider `CC[C@H](C)[C@H](N)C(=O)N[C@@H](C)C(=O)N[C@H](C(=O)N[C@@H](CO)C(=O)N[C@@H](CCSC)C(=O)N[C@@H](C)C(=O)N[C@@H](CC(N)=O)C(=O)N[C@H](C(=O)N[C@@H](Cc1ccccc1)C(=O)O)[C@@H](C)CC)C(C)C`, for which the “T cell response [SFC]” value is 118 SFC under setting [2] and 108 SFC under setting [1]. With `CC[C@H](C)[C@H](N)C(=O)N[C@@H](C)C(=O)N[C@H](C(=O)N[C@@H](CO)C(=O)N[C@H](C(=O)N[C@@H](C)C(=O)N[C@@H](CC(N)=O)C(=O)N[C@H](C(=O)N[C@@H](Cc1ccccc1)C(=O)O)[C@@H](C)CC)[C@@H](C)O)C(C)C`, the “T cell response [SFC]” value under setting [1] was 135 SFC. As to `CC(C)C[C@H](NC(=O)[C@H](CCCNC(=N)N)NC(=O)[C@@H]1CCCN1C(=O)[C@@H](N)CCCCN)C(=O)N[C@@H](CS)C(=O)N[C@H](C(=O)N[C@@H](CCCNC(=N)N)C(=O)N[C@@H](CCC(=O)O)C(=O)N[C@@H](CCC(=O)O)C(=O)N[C@@H](Cc1ccccc1)C(=O)O)[C@@H](C)O`, the “T cell response [SFC]” value (human donors, allele B*0702) is reported as 48 SFC.

As for `CSCC[C@H](NC(=O)[C@H](Cc1ccc(O)cc1)NC(=O)[C@@H]1CCCN1C(=O)[C@H](CC(N)=O)NC(=O)[C@H](CC(C)C)NC(=O)[C@@H](NC(=O)[C@@H](N)CCCCN)C(C)C)C(=O)N1CCC[C@H]1C(=O)N[C@@H](CO)C(=O)N[C@H](C(=O)O)C(C)C`, the “T cell response [SFC]” value (human donors, allele A*0201) is on record as 48 SFC.

As to `CSCC[C@H](NC(=O)[C@H](CC(C)C)NC(=O)[C@@H](NC(=O)[C@H](CCC(=O)O)NC(=O)[C@@H](N)CC(C)C)[C@@H](C)O)C(=O)N[C@@H](CC(C)C)C(=O)N[C@H](C(=O)N[C@@H](C)C(=O)N[C@@H](CC(C)C)C(=O)N[C@@H](CC(C)C)C(=O)O)C(C)C`, the “T cell response [SFC]” value under setting [3] is 185 SFC.

On to `CC[C@H](C)[C@H](NC(=O)[C@H](CO)NC(=O)[C@H](CC(C)C)NC(=O)[C@H](C)NC(=O)[C@@H](N)CCSC)C(=O)N[C@H](C(=O)N[C@@H](CO)C(=O)N[C@@H](CC(C)C)C(=O)N[C@@H](Cc1ccccc1)C(=O)O)C(C)C`, for which the “T cell response [SFC]” value (allele B*5101, Sri Lankan donors) is given as 340 SFC. On to `CC[C@H](C)[C@H](NC(=O)[C@H](CC(N)=O)NC(=O)[C@H](C)NC(=O)[C@@H](N)CCSC)C(=O)N[C@@H](Cc1ccccc1)C(=O)N[C@@H](CCCNC(=N)N)C(=O)NCC(=O)N[C@@H](CO)C(=O)N[C@@H](Cc1ccc(O)cc1)C(=O)O`, for which the “T cell response [SFC]” value under setting [2] turned out to be 5982 SFC. For the compound `CSCC[C@H](NC(=O)[C@@H](NC(=O)[C@H](Cc1c[nH]cn1)NC(=O)[C@H](Cc1ccccc1)NC(=O)[C@@H](NC(=O)CNC(=O)[C@H](CCC(=O)O)NC(=O)[C@@H](N)CCSC)C(C)C)[C@@H](C)O)C(=O)N[C@@H](Cc1c[nH]c2ccccc12)C(=O)O`, under “allele B*4403, Sri Lankan donors”, the “T cell response [SFC]” value turned out to be 68 SFC. Regarding `CSCC[C@H](NC(=O)[C@@H](NC(=O)[C@H](CCSC)NC(=O)[C@H](CO)NC(=O)[C@@H]1CCCN1C(=O)[C@@H](NC(=O)[C@@H](NC(=O)[C@H](CC(C)C)NC(=O)[C@@H](N)CCSC)C(C)C)[C@@H](C)O)[C@@H](C)O)C(=O)O`, under setting [2], the “T cell response [SFC]” value was found to be 115 SFC. On to `CSCC[C@H](N)C(=O)N[C@H](C(=O)N[C@@H](CO)C(=O)N[C@@H](CCCNC(=N)N)C(=O)N[C@@H](CC(C)C)C(=O)N[C@@H](CC(C)C)C(=O)N[C@@H](CC(C)C)C(=O)N[C@@H](CC(N)=O)C(=O)N[C@@H](CCCNC(=N)N)C(=O)O)C(C)C`, for which the “T cell response [SFC]” value (human donors, allele A*1101) was 992 SFC. As to `CC(C)C[C@H](NC(=O)[C@H](CCCNC(=N)N)NC(=O)[C@@H]1CCCN1C(=O)[C@@H](N)CC(N)=O)C(=O)N[C@@H](CS)C(=O)N[C@H](C(=O)N[C@@H](CCCNC(=N)N)C(=O)N[C@@H](CCC(=O)O)C(=O)N[C@@H](CCC(=O)O)C(=O)N[C@@H](Cc1ccccc1)C(=O)O)[C@@H](C)O`, the “T cell response [SFC]” value (human donors, allele B*0702) worked out at 25 SFC. For `CC[C@H](C)[C@H](NC(=O)[C@H](Cc1ccc(O)cc1)NC(=O)CNC(=O)[C@H](CCCNC(=N)N)NC(=O)[C@H](C)NC(=O)[C@H](C)NC(=O)[C@@H](NC(=O)[C@H](CO)NC(=O)[C@H](C)NC(=O)[C@@H]1CCCN1)[C@@H](C)CC)C(=O)O`, the “T cell response [SFC]” value under setting [1] was 140 SFC.

Consider `CC[C@H](C)[C@H](NC(=O)[C@H](CCC(=O)O)NC(=O)[C@@H](N)CCCNC(=N)N)C(=O)N1CCC[C@H]1C(=O)N[C@@H](CCC(=O)O)C(=O)N[C@@H](CCCNC(=N)N)C(=O)N[C@@H](CO)C(=O)N[C@@H](Cc1c[nH]c2ccccc12)C(=O)N[C@@H](CC(N)=O)C(=O)N[C@H](C(=O)O)[C@@H](C)O`, for which the “T cell response [SFC]” value under setting [3] is recorded as 93 SFC.

Regarding `C[C@@H](O)[C@H](NC(=O)[C@H](Cc1ccccc1)NC(=O)[C@H](CS)NC(=O)[C@H](Cc1c[nH]c2ccccc12)NC(=O)[C@H](CCC(=O)O)NC(=O)[C@@H](N)CCCNC(=N)N)C(=O)NCC(=O)N[C@@H](CCC(=O)O)C(=O)N[C@@H](CCCNC(=N)N)C(=O)N[C@@H](CC(N)=O)C(=O)O`, the “T cell response [SFC]” value under setting [3] was found to be 48 SFC.

As for `CC(C)C[C@H](NC(=O)[C@H](C)NC(=O)[C@H](CCC(=O)O)NC(=O)[C@H](Cc1ccccc1)NC(=O)[C@H](CCC(=O)O)NC(=O)[C@H](CC(C)C)NC(=O)[C@H](Cc1ccccc1)NC(=O)[C@@H](N)CCCNC(=N)N)C(=O)NCC(=O)N[C@@H](Cc1ccccc1)C(=O)O`, the “T cell response [SFC]” value (human donors, allele A*2402) came to 37 SFC. With `CC(C)C[C@H](NC(=O)[C@H](C)NC(=O)[C@H](CCC(=O)O)NC(=O)[C@H](Cc1ccccc1)NC(=O)[C@H](CCC(=O)O)NC(=O)[C@H](CC(C)C)NC(=O)[C@H](Cc1ccc(O)cc1)NC(=O)[C@@H](N)CCCNC(=N)N)C(=O)NCC(=O)N[C@@H](Cc1ccccc1)C(=O)O`, where the note is “human donors, allele A*2402”, the “T cell response [SFC]” value is on record as 130 SFC. Consider `CSCC[C@H](NC(=O)CNC(=O)[C@H](CCCCN)NC(=O)[C@H](CC(C)C)NC(=O)[C@H](C)NC(=O)[C@H](CCC(=O)O)NC(=O)[C@H](C)NC(=O)[C@H](CCSC)NC(=O)[C@H](CCC(=O)O)NC(=O)[C@@H](N)CO)C(=O)O`, for which the “T cell response [SFC]” value under setting [3] turned out to be 120 SFC. `CSCC[C@H](NC(=O)[C@H](Cc1ccc(O)cc1)NC(=O)[C@@H]1CCCN1C(=O)[C@H](CC(N)=O)NC(=O)[C@H](CC(C)C)NC(=O)[C@@H](N)C(C)C)C(=O)N1CCC[C@H]1C(=O)N[C@@H](CO)C(=O)N[C@H](C(=O)O)C(C)C`: the “T cell response [SFC]” value (human donors, allele A*0201) was determined as 987 SFC. Regarding `CC[C@H](C)[C@H](NC(=O)[C@@H](NC(=O)[C@H](CO)NC(=O)[C@H](Cc1ccc(O)cc1)NC(=O)[C@H](CCCCN)NC(=O)[C@H](CC(C)C)NC(=O)[C@H](CC(N)=O)NC(=O)[C@H](CCC(=O)O)NC(=O)[C@@H](N)Cc1ccc(O)cc1)C(C)C)C(=O)O`, under “allele B*4402, Sri Lankan donors”, the “T cell response [SFC]” value turned out to be 37 SFC.
